Target: T1, HDAC6 (Homo sapiens, UniProt Q9UBN7)
T1 construct: purchased BPS Biosciencies (San Diego, Calif.)
T1 sequence (Q9UBN7 1-1215): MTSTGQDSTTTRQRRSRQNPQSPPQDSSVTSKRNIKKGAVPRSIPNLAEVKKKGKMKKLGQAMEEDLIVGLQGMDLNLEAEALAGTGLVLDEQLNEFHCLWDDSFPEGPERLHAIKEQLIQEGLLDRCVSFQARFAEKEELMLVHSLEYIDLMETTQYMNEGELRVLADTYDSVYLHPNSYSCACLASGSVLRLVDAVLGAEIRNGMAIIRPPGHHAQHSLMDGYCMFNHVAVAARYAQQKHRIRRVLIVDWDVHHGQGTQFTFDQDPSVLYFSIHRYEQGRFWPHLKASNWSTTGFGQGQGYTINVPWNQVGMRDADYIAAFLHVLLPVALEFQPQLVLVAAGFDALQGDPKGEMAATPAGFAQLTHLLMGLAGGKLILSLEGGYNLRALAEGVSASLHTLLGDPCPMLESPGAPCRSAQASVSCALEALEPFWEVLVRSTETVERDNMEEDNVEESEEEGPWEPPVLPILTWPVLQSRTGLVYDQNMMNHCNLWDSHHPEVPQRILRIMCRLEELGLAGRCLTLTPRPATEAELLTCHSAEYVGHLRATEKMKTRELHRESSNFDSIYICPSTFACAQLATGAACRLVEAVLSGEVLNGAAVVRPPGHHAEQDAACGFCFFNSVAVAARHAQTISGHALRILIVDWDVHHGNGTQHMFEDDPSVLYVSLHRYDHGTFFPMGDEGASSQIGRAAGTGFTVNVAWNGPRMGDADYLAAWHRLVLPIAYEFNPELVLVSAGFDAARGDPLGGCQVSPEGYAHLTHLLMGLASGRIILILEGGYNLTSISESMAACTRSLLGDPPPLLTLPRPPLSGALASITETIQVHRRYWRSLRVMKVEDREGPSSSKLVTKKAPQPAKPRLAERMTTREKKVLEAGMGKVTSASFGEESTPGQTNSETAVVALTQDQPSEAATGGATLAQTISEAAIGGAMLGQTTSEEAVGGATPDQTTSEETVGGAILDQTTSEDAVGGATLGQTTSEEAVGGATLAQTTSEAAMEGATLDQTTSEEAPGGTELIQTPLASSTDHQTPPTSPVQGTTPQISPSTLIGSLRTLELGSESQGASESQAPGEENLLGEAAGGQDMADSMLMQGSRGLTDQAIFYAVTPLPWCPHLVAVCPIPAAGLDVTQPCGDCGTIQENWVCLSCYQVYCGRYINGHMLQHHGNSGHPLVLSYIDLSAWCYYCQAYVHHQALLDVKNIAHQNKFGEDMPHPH
Assay: Kinetic HDAC enzyme inhibition assay, HDAC6
Type: biochemical

- Selectivity for HDAC6 versus HDAC3: non selective
Structure (SMILES): CC(/C=C/C(=O)NO)=C\[C@@H](C)C(=O)c1ccc(N(C)C)cc1 [Trichostatin A]

Source: patent US20130225543A1, “SPECIFIC REGULATION OF CYTOKINE LEVELS BY HDAC6 INHIBITORS” (Acetylon Pharmaceuticals, priority 2010, published 2013)
